Our source for the IC50 values is US11186582B2, “Substituted [1,2,4]triazolo[1,5-a]pyrimidin-7-yl compounds as PDE2 inhibitors” (DART NEUROSCIENCE (CAYMAN) LTD., priority 2014, dated 2021).

By UniProt entry, the sequences of proteins in these tests, tags left out. Residues count along the entry.
UniProt O00408, 2-941: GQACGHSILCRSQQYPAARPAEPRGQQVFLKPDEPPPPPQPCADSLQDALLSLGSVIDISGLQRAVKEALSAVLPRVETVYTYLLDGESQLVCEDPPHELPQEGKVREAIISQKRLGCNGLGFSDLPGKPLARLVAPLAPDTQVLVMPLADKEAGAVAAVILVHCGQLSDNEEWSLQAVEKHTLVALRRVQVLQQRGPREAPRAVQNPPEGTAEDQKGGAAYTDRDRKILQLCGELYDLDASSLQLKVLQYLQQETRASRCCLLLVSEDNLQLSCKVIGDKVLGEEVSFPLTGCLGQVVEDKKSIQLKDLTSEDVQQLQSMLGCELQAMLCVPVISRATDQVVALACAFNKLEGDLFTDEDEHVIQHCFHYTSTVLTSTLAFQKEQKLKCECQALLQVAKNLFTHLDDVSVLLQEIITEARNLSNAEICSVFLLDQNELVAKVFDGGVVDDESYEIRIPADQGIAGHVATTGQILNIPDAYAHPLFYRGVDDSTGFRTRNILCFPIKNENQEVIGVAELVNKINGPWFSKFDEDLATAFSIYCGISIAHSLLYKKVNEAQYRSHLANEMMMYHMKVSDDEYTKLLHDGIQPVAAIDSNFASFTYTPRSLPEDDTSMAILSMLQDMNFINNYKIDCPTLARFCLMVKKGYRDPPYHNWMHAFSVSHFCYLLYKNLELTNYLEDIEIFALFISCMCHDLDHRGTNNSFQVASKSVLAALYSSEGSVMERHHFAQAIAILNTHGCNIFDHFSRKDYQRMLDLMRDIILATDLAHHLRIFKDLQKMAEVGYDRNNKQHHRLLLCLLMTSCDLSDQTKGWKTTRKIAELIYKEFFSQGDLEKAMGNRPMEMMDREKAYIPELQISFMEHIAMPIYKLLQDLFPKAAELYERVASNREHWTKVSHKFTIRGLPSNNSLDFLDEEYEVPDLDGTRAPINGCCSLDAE

By IC50 is commonly meant the midpoint of a concentration-inhibition curve. Low values mean greater potency in that assay, high ones weaker potency in that assay.

In this assay the target is FLAG-tagged PDE2A1 (amino acids 2-941) (Homo sapiens (Human), UniProt O00408). Put plainly: IMAP TR-FRET PDE2A phosphodiesterase enzymatic assay. In general terms: In TR-FRET formats the signal depends on donor and acceptor labels being close together.
Consider `COc1c(F)cccc1C(=O)N1CCCC(c2cc(C)nc3ncnn23)C1` (stereo not drawn) [Example 468, 1-[(3-Fluoro-2-methoxyphenyl)carbonyl]-3-{5-methyl-[1,2,4]triazolo[1,5-a]pyrimidin-7-yl}piperidine], for which the 50% inhibitory concentration (IC50) fell in the range of 1000 to 10000 nM.
For `Cc1cc(C2CCCN(C(=O)c3cccc(F)c3C)C2)n2ncnc2n1` (stereo not drawn) [Example 469, 1-[(3-Fluoro-2-methylphenyl)carbonyl]-3-{5-methyl-[1,2,4]triazolo[1,5-a]pyrimidin-7-yl}piperidine] the value was 1000 to 10000 nM.
Molecule `Cc1cc(C2CCCN(C(=O)c3csc4ccccc34)C2)n2ncnc2n1` (stereo not drawn) [Example 470, 1-[(1-Benzothiophen-3-yl)carbonyl]-3-{5-methyl-[1,2,4]triazolo[1,5-a]pyrimidin-7-yl}piperidine] registered an IC50 of 100 to 1000 nM.
The molecule `Cc1cc(C2CCCN(C(=O)c3cc(F)cc(Cl)c3)C2)n2ncnc2n1` (stereo not drawn) [Example 471, 1-[(3-Chloro-5-fluorophenyl)carbonyl]-3-{5-methyl-[1,2,4]triazolo[1,5-a]pyrimidin-7-yl}piperidine] displayed an IC50 of 100 to 1000 nM.
`Cc1cc(C2CCCN(C(=O)c3c(F)cccc3F)C2)n2ncnc2n1` (stereo not drawn) [Example 472, 1-[(2,6-Difluorophenyl)carbonyl]-3-{5-methyl-[1,2,4]triazolo[1,5-a]pyrimidin-7-yl}piperidine] returned an IC50 of over 10000 nM.
`Cc1cc(C2CCCN(C(=O)c3sc(C)nc3C)C2)n2ncnc2n1` (stereo not drawn) [Example 473, 1-[(Dimethyl-1,3-thiazol-5-yl)carbonyl]-3-{5-methyl-[1,2,4]triazolo[1,5-a]pyrimidin-7-yl}piperidine] gave an IC50 of 1000 to 10000 nM.
Molecule `Cc1cc(C2CCCN(C(=O)c3cc(Cl)ccc3F)C2)n2ncnc2n1` (stereo not drawn) [Example 474, 1-[(5-Chloro-2-fluorophenyl)carbonyl]-3-{5-methyl-[1,2,4]triazolo[1,5-a]pyrimidin-7-yl}piperidine] came in with a 50% inhibitory concentration (IC50) of 100 to 1000 nM.
Molecule `Cc1cc(C2CCCN(C(=O)c3ccccc3C#N)C2)n2ncnc2n1` (stereo not drawn) [Example 476, 2-[(3-{5-Methyl-[1,2,4]triazolo[1,5-a]pyrimidin-7-yl}piperidin-1-yl)carbonyl]benzonitrile] showed a concentration for half-maximal inhibition (IC50) of 1000 to 10000 nM.
For the molecule `Cc1cc(C2CCCN(C(=O)c3c4ccccc4nn3C)C2)n2ncnc2n1` (stereo not drawn) [Example 477, 2-Methyl-3-[(3-{5-methyl-[1,2,4]triazolo[1,5-a]pyrimidin-7-yl}piperidin-1-yl)carbonyl]-2H-indazole], the IC50 is over 10000 nM.
For `Cc1ccc(C(=O)N2CCCC(c3cc(C)nc4ncnn34)C2)cn1` (stereo not drawn) [Example 478, 2-Methyl-5-[(3-{5-methyl-[1,2,4]triazolo[1,5-a]pyrimidin-7-yl}piperidin-1-yl)carbonyl]pyridine] the value was 1000 to 10000 nM; for `Cc1cc(C2CCCN(C(=O)c3ccccc3)C2)n2ncnc2n1` (stereo not drawn) [Example 479, 1-Benzoyl-3-{5-methyl-[1,2,4]triazolo[1,5-a]pyrimidin-7-yl}piperidine], 100 to 1000 nM; for `Cc1cc(C2CCCN(C(=O)c3ccc(Cl)c(F)c3)C2)n2ncnc2n1` (stereo not drawn) [Example 480, 1-[(4-Chloro-3-fluorophenyl)carbonyl]-3-{5-methyl-[1,2,4]triazolo[1,5-a]pyrimidin-7-yl}piperidine], 100 to 1000 nM.
`Cc1cc(C2CCCN(C(=O)c3cc(F)ccc3Cl)C2)n2ncnc2n1` (stereo not drawn) [Example 482, 1-[(2-Chloro-5-fluorophenyl)carbonyl]-3-{5-methyl-[1,2,4]triazolo[1,5-a]pyrimidin-7-yl}piperidine] came in with an IC50 of 1000 to 10000 nM.
Molecule `Cc1cc(C2CCCN(C(=O)c3cccc(Cl)c3F)C2)n2ncnc2n1` (stereo not drawn) [Example 483, 1-[(3-Chloro-2-fluorophenyl)carbonyl]-3-{5-methyl-[1,2,4]triazolo[1,5-a]pyrimidin-7-yl}piperidine] registered an IC50 of 1000 to 10000 nM.
With `Cc1cc(C2CCCN(C(=O)c3ccc(F)cc3C)C2)n2ncnc2n1` (stereo not drawn) [Example 484, 1-[(4-Fluoro-2-methylphenyl)carbonyl]-3-{5-methyl-[1,2,4]triazolo[1,5-a]pyrimidin-7-yl}piperidine], the IC50 was 1000 to 10000 nM.
